In ChEMBL document CHEMBL1821711, “Design and synthesis of novel arylpiperazine derivatives containing the imidazole core targeting 5-HT(2A) receptor and 5-HT transporter” (J Med Chem, 2011) one finds IC50 data, which are given here for 28 molecules.

The chains behind the UniProt entries cited, without tags or fusion partners. Where a name states a change or a piece, a line headed by the entry shows the natural chain unless it says otherwise.
UniProt P28335: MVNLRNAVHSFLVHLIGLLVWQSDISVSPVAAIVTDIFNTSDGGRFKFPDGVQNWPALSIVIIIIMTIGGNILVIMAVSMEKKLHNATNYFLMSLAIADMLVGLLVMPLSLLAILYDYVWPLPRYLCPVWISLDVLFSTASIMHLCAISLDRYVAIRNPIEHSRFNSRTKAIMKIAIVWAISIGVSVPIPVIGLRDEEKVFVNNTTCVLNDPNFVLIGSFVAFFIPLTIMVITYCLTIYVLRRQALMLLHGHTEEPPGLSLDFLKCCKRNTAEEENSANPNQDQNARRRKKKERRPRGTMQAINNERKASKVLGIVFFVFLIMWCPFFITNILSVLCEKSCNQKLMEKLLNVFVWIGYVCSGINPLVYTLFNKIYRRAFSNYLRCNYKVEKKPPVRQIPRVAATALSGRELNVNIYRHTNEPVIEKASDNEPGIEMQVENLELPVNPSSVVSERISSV
UniProt P31645, whole entry: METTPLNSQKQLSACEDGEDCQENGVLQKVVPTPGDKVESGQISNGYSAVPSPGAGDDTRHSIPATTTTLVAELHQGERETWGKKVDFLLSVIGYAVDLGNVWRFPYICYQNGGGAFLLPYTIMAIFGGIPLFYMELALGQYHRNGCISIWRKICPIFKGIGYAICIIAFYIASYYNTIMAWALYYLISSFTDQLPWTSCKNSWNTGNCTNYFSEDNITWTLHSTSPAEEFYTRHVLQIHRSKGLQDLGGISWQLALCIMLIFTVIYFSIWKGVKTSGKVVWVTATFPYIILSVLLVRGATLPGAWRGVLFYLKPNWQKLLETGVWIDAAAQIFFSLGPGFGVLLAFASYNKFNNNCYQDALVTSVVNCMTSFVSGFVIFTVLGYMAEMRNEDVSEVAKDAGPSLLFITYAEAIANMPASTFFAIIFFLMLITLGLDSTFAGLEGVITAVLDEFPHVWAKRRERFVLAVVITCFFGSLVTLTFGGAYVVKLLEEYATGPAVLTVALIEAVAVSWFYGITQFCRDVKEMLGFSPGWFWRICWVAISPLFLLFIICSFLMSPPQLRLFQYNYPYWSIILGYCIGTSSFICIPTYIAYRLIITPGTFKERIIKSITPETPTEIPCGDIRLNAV

pIC50: −log10 of the molar value.

The target of one experiment is 5-hydroxytryptamine receptor 2C (Homo sapiens, UniProt P28335). The experiment in a line: biochemical. It is filed as cell-based, CHO-K1.
`Cc1c(C(=O)NCCCN2CCN(c3cccc(Cl)c3Cl)CC2)nc(-c2ccccc2)n1-c1ccccc1` showed a pIC50 of 6.96.
Same read-out and setting: to `CCCc1nc(C(=O)NCC(O)CN2CCN(c3cccc(Cl)c3C)CC2)c(C)n1-c1ccc2c(c1)OCCO2` (centres undefined) belongs 6.55; to `Cc1c(Cl)cccc1N1CCN(C[C@H](O)CNC(=O)c2nc(-c3ccccc3)n(-c3ccc(F)cc3)c2C)CC1`, 6.32; to `Cc1c(Cl)cccc1N1CCN(CC(O)CNC(=O)c2nc(-c3ccccc3)n(-c3ccc(F)cc3)c2C)CC1` (racemic), under 5.00.
Still for that read-out and setting: then `CCCc1nc(C(=O)NCCCN2CCN(c3cccc(C)c3C)CC2)c(C)n1-c1ccc2c(c1)OCCO2`, with 6.63.

A further experiment deals with Sodium-dependent serotonin transporter (Homo sapiens, UniProt P31645). The experiment in a line: biochemical. The experiment is classed as cell-based, HEK293.
`Cc1c(C(=O)NCCCN2CCN(c3cccc(Cl)c3Cl)CC2)nc(-c2ccccc2)n1-c1ccccc1F` had a pIC50 of 6.70.
Same read-out and setting: to `Cc1nc(C(=O)NCCCN2CCN(c3cccc(Cl)c3Cl)CC2)c(C)n1C1CCCC1` belongs 7.46; to `COc1ccc(-n2c(-c3ccccc3)nc(C(=O)NCCCN3CCN(c4cccc(Cl)c4C)CC3)c2C)cc1`, 7.60.
Regarding `CCCc1nc(C(=O)NCCCN2CCN(c3cccc(Cl)c3C)CC2)c(C)n1-c1ccccc1OC`, the pIC50 is 7.26.
The same measure, in the same setting: then `COc1ccc(-n2c(-c3ccccc3)nc(C(=O)NCCCN3CCN(c4cccc(Cl)c4Cl)CC3)c2C)cc1`, with 7.12; and `CCCc1nc(C(=O)NCCCN2CCN(c3cccc(C)c3C)CC2)cn1-c1ccc(F)cc1`, with 6.73; and `Cc1c(Cl)cccc1N1CCN(CCCNC(=O)c2nc(-c3ccccc3)n(-c3ccccc3)c2Cn2cncn2)CC1`, with 6.74.
Still for that read-out and setting: to `Cc1c(Cl)cccc1N1CCN(CCCNC(=O)c2nc(C)n(-c3ccc4c(c3)OCCO4)c2C)CC1` belongs 8.57; to `CCCc1nc(C(=O)NCCCN2CCN(c3cccc(C)c3C)CC2)cn1-c1ccccc1`, 7.77.
`Cc1c(Cl)cccc1N1CCN(CC(O)CNC(=O)c2nc(C)n(C3CCCC3)c2C)CC1` (centres undefined) showed a pIC50 of 7.41.
Same read-out and setting: to `Cc1c(Cl)cccc1N1CCN(CCCNC(=O)c2nc(C)n(C3CCCC3)c2C)CC1` belongs 8.02; to `CCCc1nc(C(=O)NCCCN2CCN(c3cccc(C)c3C)CC2)c(C)n1-c1ccccc1OC`, 7.55; to `CCCc1nc(C(=O)NCCCN2CCN(c3cccc(Cl)c3C)CC2)cn1-c1ccc(Cl)cc1`, 7.18.
The molecule `Cc1c(C(=O)NCC(O)CN2CCN(c3cccc(Cl)c3Cl)CC2)nc(-c2ccccc2)n1-c1ccc(F)cc1` (centres undefined) showed a pIC50 of 6.71.
Molecule `CCCc1nc(C(=O)NCCCN2CCN(c3cccc(Cl)c3C)CC2)c(C)n1-c1ccc(F)cc1` showed a pIC50 of 7.55.
The same measure, in the same setting: then `CCCn1c(C)nc(C(=O)NCCCN2CCN(c3cccc(Cl)c3Cl)CC2)c1C`, with 7.74; and `CCCc1nc(C(=O)NCCCN2CCN(c3cccc(C)c3C)CC2)c(C)n1-c1ccc2c(c1)OCCO2`, with 8.30; and `Cc1c(Cl)cccc1N1CCN(CCCNC(=O)c2nc(-c3ccccc3)n(-c3ccc(F)cc3)c2C)CC1`, with 6.55.
With `Cc1cccc(N2CCN(CCCNC(=O)c3cn(-c4ccccc4)c(-c4ccccc4)n3)CC2)c1C`, the pIC50 is 7.30.
Same read-out and setting: to `CCCc1nc(C(=O)NCCCN2CCN(c3cccc(C)c3C)CC2)c(C)n1-c1ccc(F)cc1` belongs 8.18; to `Cc1c(Cl)cccc1N1CCN(CCCNC(=O)c2nc(-c3ccccc3)n(-c3ccccc3)c2C)CC1`, 7.75.
On the same count and under the same terms, to `Cc1cccc(N2CCN(CCCNC(=O)c3nc(C)n(-c4ccc5c(c4)OCCO5)c3C)CC2)c1C` belongs 8.22.
Molecule `CCCc1nc(C(=O)NCCCN2CCN(c3cccc(Cl)c3C)CC2)c(C)n1-c1ccc2c(c1)OCCO2` had a negative-log IC50 (pIC50) of 7.85.
On the same count and under the same terms, then `Cc1cccc(N2CCN(CCCNC(=O)c3nc(-c4ccccc4)n(-c4ccc5c(c4)OCCO5)c3C)CC2)c1C`, with 6.73.

Broadly, the pIC50 is the IC50 on a negative log10 scale, so that one unit is a factor of ten. Higher therefore signals a low IC50.
